Data reported in ChEMBL document CHEMBL1152530, “Fluorinated pyridinium oximes as potential reactivators for acetylcholinesterases inhibited by paraoxon organophosphorus agent” (2009).

Assays:
Design in all cases: scale not given: the % may be the effect or the level left
[1] = biological target: Acetylcholinesterase (Musca domestica) (UniProt Q7YWJ9); assay: Reactivation of diisopropylfluorophosphate-inhibited house fly AChE activity at 5 mM after 30 mins by Ellman's method
[2] = biological target: Acetylcholinesterase (Musca domestica) (UniProt Q7YWJ9); assay: Reactivation of paraoxon-inhibited house fly AChE activity at 5 mM after 1 hr by Ellman's method
[3] = biological target: T1, Acetylcholinesterase (Bos taurus) (UniProt P23795); assay: Reactivation of paraoxon-inhibited AChE activity in bovine red blood cell at 5 mM after 1 hr by Ellman's method
T1 sequence (whole entry): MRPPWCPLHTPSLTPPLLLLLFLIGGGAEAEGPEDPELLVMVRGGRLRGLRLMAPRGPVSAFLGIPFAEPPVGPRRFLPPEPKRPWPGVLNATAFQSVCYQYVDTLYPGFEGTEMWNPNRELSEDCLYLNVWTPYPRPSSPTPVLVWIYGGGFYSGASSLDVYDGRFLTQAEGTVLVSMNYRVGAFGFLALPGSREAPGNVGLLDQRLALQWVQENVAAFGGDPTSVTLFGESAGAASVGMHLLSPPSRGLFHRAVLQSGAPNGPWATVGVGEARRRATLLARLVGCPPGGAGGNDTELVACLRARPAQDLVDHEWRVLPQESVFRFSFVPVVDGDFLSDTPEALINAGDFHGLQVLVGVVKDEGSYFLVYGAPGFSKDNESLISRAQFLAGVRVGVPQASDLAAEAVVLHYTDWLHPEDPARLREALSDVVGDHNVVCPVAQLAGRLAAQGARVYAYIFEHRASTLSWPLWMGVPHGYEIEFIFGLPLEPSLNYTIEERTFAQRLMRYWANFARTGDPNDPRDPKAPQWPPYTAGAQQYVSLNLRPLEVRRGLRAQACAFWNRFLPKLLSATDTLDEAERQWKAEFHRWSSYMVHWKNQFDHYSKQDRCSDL

[4] = biological target: T1, Acetylcholinesterase (Bos taurus); assay: Reactivation of diisopropylfluorophosphate-inhibited AChE activity in bovine red blood cell at 5 mM after 30 mins by Ellman's method
[5] = biological target: T1, Acetylcholinesterase (Bos taurus); assay: Reactivation of organophosphate-inhibited AChE activity in bovine red blood cell at 5 mM by Ellman's method

| Structure (SMILES) | Activity [1] [%] | Activity [2] [%] | Activity [3] [%] | Activity [4] [%] | Activity [5] [%] |
| --- | --- | --- | --- | --- | --- |
| O/N=C\c1cc[n+](C/C=C/C[n+]2ccc(/C=N/O)cc2)cc1 | 24.7 | 24.7 | 50.6 | 50.6 | – |
| NC(=O)c1cc[n+](C/C=C/C[n+]2ccc(/C=N/O)c(F)c2)cc1 | 38.6 | 38.6 | 63.3 | 63.3 | – |
| O/N=C/c1cc[n+](C/C=C/C[n+]2ccc(/C=N/O)c(F)c2)cc1F | 23 | 23 | 49.9 | 49.9 | – |
| NC(=O)c1cc[n+](COC[n+]2ccccc2/C=N/O)cc1 | – | – | – | – | 48.2 |
| O/N=C/c1cc[n+](C/C=C/C[n+]2ccc(/C=N/O)c(F)c2)cc1 | 42.3 | 42.3 | 54.6 | 54.6 | – |
